Two molecules from PubChem BioAssay AID1194 (EPA DSSTox, 2008) can be followed below.

Each structure is given as a SMILES string. Calls of active or inactive are those of the source.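 Rule for the calls: active = chemicals rated mutagenic or weakly mutagenic in the Salmonella bacterial test by one literature review, or positive overall by another; inconclusive = no clear call, values can overlap the other calls; inactive = the rest.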 Where a call stands in place of a potency, no number is given.

The data set relates to Salmonella typhimurium Ames mutagenicity, literature compiled. As to the kind of experiment: DSSTox (CPDBAS) Carcinogenic Potency Database Salmonella Mutagenicity. An excerpt: The Carcinogenic Potency Database (CPDB) is a unique and widely used international resource of the results of over 6500 chronic, long-term animal cancer tests on over 1500 chemical substances. The CPDB provides easy access to the bioassay literature, with qualitative and quantitative analyses of both positive and negative experiments that have been published over the past 50 years in the general literature and by the National Cancer Institute/National Toxicology Program. The CPDB standardizes the diverse literature of cancer bioassays that vary widely in protocol, histopathological examination and nomenclature, and in the published author's choices of what information to provide in their papers. Results are reported in the CPDB for tests in rats, mice, hamsters, dogs, and nonhuman primates, and are based on the most positive result among all experiments for each sex-species. The DSSTox CPDBAS (all species) file incorporates data from the CPDB Summary Tables for the full list of over 1500 chemical substances tested in at least one species.
A chemical is classified within the CPDB as mutagenic, i.e. "active", in the Salmonella assay if it was evaluated overall as either "mutagenic" or "weakly mutagenic" by Zeiger [Zeiger, E. (1997) Genotoxicity Database. In: Gold and Zeiger, Eds. Handbook of Carcinogenic Potency and Genotoxicity Databases. […]

As to `O=[N+]([O-])C(Cl)(Cl)Cl`, the result was active.

Consider `CN(CCCl)CCCl`, for which the outcome was active.
